Values of other authors, collected in patent publication US6409990B1, “Macromolecular carrier for drug and diagnostic agent delivery” (The Regents of the University of California, priority 1999, dated 2002).

Details: in vivo

**Q.** Which “clearance from the injection site” value does the source give for “TC-HSA: labeled macromolecule, technetium-labeled human serum albumin” here?
**A.** The value was “fastest clearance”.

**Q.** What about the “half time of clearance from the injection site” value of the same substance?
**A.** The value was 2.8 h.
